Literature values in patent US11529363B2, “Methods of treating cancer in pediatric patients” (ARIAD Pharmaceuticals, Inc., priority 2018, dated 2022).

Test system: ALK+ NSCLC
Conditions: cited from earlier work

In the case of `C[C@@H](Oc1cc(-c2cnn(C3CCNCC3)c2)cnc1N)c1c(Cl)ccc(F)c1Cl` [crizotinib], the “time within which the majority of patients progress” value (ALK+ NSCLC) is listed as ≤ 1 year and the “patients with ALK-dependent mechanisms of resistance” value (NSCLC patients treated with crizotinib) is listed as “approximately 30%”.
